Assay results reported in ChEMBL document CHEMBL4610129, “Discovery of Novel Selective and Orally Bioavailable Phosphodiesterase-1 Inhibitors for the Efficient Treatment of Idiopathic Pulmonary Fibrosis” (J Med Chem, 2020).

By UniProt entry, the sequences of proteins in these tests, tags left out. Where a name states a change or a piece, a line headed by the entry shows the natural chain unless it says otherwise.
UniProt O76083: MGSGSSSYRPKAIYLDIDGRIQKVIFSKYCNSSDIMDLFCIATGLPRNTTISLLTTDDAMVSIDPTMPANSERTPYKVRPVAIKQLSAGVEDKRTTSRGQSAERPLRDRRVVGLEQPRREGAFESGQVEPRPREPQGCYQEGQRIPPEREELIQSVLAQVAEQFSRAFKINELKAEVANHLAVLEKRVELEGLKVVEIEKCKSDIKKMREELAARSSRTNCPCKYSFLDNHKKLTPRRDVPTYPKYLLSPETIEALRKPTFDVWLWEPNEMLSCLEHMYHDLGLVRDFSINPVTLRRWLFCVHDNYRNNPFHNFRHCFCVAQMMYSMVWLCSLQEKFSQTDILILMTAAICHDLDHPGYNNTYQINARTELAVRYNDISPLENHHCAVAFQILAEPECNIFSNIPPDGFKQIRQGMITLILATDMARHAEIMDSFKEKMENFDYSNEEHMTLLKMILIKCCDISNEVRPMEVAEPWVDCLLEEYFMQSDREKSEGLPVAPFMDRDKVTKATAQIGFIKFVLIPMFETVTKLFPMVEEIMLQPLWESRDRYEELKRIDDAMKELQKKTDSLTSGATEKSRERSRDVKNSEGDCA
UniProt Q14123, whole entry: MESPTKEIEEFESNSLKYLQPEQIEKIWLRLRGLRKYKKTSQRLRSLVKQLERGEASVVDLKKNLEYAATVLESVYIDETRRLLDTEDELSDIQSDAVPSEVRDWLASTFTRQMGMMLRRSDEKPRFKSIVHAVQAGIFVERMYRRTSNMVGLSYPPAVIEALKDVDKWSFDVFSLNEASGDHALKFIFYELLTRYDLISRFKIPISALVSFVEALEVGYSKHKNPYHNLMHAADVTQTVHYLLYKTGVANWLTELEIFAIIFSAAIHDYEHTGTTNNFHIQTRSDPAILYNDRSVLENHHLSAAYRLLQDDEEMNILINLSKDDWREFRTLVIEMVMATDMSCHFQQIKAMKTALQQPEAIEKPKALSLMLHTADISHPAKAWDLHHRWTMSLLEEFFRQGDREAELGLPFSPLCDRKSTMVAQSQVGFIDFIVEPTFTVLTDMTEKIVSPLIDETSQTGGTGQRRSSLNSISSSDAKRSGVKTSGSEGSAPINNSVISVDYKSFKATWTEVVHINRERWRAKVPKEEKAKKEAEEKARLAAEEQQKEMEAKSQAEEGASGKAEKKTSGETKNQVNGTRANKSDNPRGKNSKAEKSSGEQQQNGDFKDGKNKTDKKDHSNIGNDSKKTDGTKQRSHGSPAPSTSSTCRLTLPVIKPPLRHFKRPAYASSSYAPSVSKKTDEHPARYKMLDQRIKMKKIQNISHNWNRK

Key:
[1] = target: High affinity cGMP-specific 3',5'-cyclic phosphodiesterase 9A (Homo sapiens, UniProt O76083); experiment: Inhibition of PDE9A (181 to 506 residues) (unknown origin) using [3H]-cGMP substrate incubated for 15 mins by liquid scintillation counting method
[2] = target: Dual specificity calcium/calmodulin-dependent 3',5'-cyclic nucleotide phosphodiesterase 1C (Homo sapiens, UniProt Q14123); experiment: Inhibition of PDE1C2 (147 to 531 residues) (unknown origin) using [3H]-cGMP substrate incubated for 15 mins by liquid scintillation counting method

Structure (SMILES) | IC50 [1] [nM] | IC50 [2] [nM]
C[C@@H](Nc1nc2c(cnn2C2CCCC2)c(=O)[nH]1)c1ccc(Cl)cc1 | 58 | –
C[C@@H](Nc1nc2c(cnn2C(C)(C)C)c(=O)n1Cc1ccc(F)cc1)c1ccc(Cl)cc1 | – | 2.9
